Laboratory results taken from PubChem BioAssay AID602332 (National Center for Advancing Translational Sciences (NCATS), 2012).
Several values for one entry are separate records, joined by “and”; a condition that tells them apart may be missing. Identical values can stand only once. The list shows a part of the results, in another mix than the full data. Activity calls are given as the source filed them. Calls come from the whole dose curve; as a rule, active = well fitted activation curve with a large enough effect; inconclusive = small, poorly fitted or top-dose-only effect; inactive = no such curve, though single readings can be large or run the other way.

Assay: qHTS for Inducers of the Endoplasmic Reticulum Stress Response (ERSR) in Human Glioma: qHTS; note: % of control where 0% means no effect; nearly all actives have a fitted effect of over 35% in size
Conditions: U87-MG GRP78 promoter luciferase reporter, 16 h; hits give high values
In the case of `COc1ccc(OP(C)(=O)Nc2ccccc2Br)cc1` (stereo not given), the activation is reported as inactive: -4.05%. In the case of `COc1ccccc1OP(C)(=O)Nc1ccc(C)c(C)c1` (stereo not given), the activation is reported as inactive: -1.44%. For `Cc1cc(C)cc(OP(C)(=O)Nc2cccc(C(F)(F)F)c2)c1` (stereo not given), the activation was inactive: -5.63%. With `CP(=O)(Nc1ccc(Cl)cc1Cl)Oc1ccccc1` (stereo not given) the activation was inactive: -0.771%. With `CCCCCCCCCCCCCCCC1C[N+](C)(C)CCOP(C)(=O)O1` (stereo not given) the activation was inactive: -4.64%. In the case of `CP(=O)(OCCOc1ccccc1)OCCOc1ccccc1`, the activation is reported as inactive: -2.72%. For `CN(C)CCOC(=O)C(O)(c1ccccc1)C1CCCC1` (stereo not given), the activation was inactive: -4.73%. For `COc1ccc(OP(C)(=O)Nc2ccccn2)cc1` (stereo not given), the activation was inactive: -0.631%. With `COc1ccccc1OP(C)(=O)Nc1ccc(Br)cc1` (stereo not given) the activation was inactive: 2.6%. With `CCc1ccc(OP(C)(=O)O)cc1` the activation was inactive: -1.29%. With `COc1ccccc1OP(C)(=O)Nc1ccc(C)cc1C` (stereo not given) the activation was inactive: 1.14%. In the case of `CP(=O)(Nc1ccccn1)Oc1ccccc1` (stereo not given), the activation is reported as inactive: -3.13%. For `Cc1c(NP(C)(=O)Oc2ccc(C(C)C)cc2)c(=O)n(-c2ccccc2)n1C` (stereo not given), the activation was inactive: -2.34%. With `O=[N+]([O-])c1cc([N+](=O)[O-])c(Nc2ccccn2)c([N+](=O)[O-])c1` the activation was inactive: -12.2%. For `CCc1ccc(OP(C)(=O)Nc2cccnc2)cc1` (stereo not given), the activation was inactive: -5.26%. With `CP(=O)(Oc1ccccc1)N1CCOC1=O` (stereo not given) the activation was inactive: 3.59%. For `OCCSCCO`, the activation was inactive: -1.72%. With `O=C(OCCCN1CCCC1)C(O)(c1ccccc1)C1CCCCC1` (stereo not given) the activation was inactive: -1.2%. In the case of `COc1ccccc1OP(C)(=O)Nc1c(C)n(C)n(-c2ccccc2)c1=O` (stereo not given), the activation is reported as inactive: -3%. In the case of `COc1ccc(OP(C)(=O)Nc2ccc(Br)cc2)cc1` (stereo not given), the activation is reported as inactive: -4.03%. In the case of `CCN(CC)CC(O)COC(=O)C(O)(c1ccccc1)C1CCCCC1` (stereo not given), the activation is reported as inactive: -6.24%. With `CN(C)C(=O)c1c([N+](=O)[O-])cc([N+](=O)[O-])cc1[N+](=O)[O-]` the activation was inactive: -8.14%. In the case of `CP(=O)(Nc1ccc(Cl)cc1)Oc1ccc(F)cc1` (stereo not given), the activation is reported as inactive: -4.45%. In the case of `COc1ccccc1OP(C)(=O)Nc1ccccc1Br` (stereo not given), the activation is reported as inactive: 4.75%. For `CC(C)(C)c1ccc(OP(C)(=O)O)cc1`, the activation was inactive: -5.44%. With `CP(=O)(OC12CC3CC(CC(C3)C1)C2)OC12CC3CC(CC(C3)C1)C2` the activation was inactive: -3.66%. In the case of `CCOC(=O)c1ccc(NP(C)(=O)Oc2ccc(Cl)cc2)cc1` (stereo not given), the activation is reported as inactive: -2.63%. With `Nc1ccc2c(ccc3cccnc32)n1.O=[N+]([O-])c1cc([N+](=O)[O-])c(O)c([N+](=O)[O-])c1` the activation was inactive: -3.3%. In the case of `CC(C)OP(=O)(F)OC(C)C`, the activation is reported as inactive: -3.7%. In the case of `C/C1=C2N=C(/C=C3N=C(/C(C)=C4\[N-][C@@](C)([C@H]5N=C1[C@@](C)(CCC(=O)NC[C@H](C)OP(=O)([O-])O[C@@H]1[C@H](O)[C@H](n6cnc7cc(C)c(C)cc76)O[C@@H]1CO)[C@@H]5CC(N)=O)[C@](C)(CC(N)=O)[C@H]4CCC(N)=O)[C@@](C)(CC(N)=O)[C@@H]\3CCC(N)=O)C(C)(C)[C@@H]/2CCC(N)=O.[C-]#N.[Co+3]`, the activation is reported as inactive: -5.82%. For `COc1ccc(NP(C)(=O)Oc2ccccc2OC)cc1` (stereo not given), the activation was inactive: 0.335%. In the case of `CN(C)CCOC(=O)C(O)(c1ccccc1)C1CCCCC1` (stereo not given), the activation is reported as inactive: -1.86%. With `COc1ccc(OP(C)(=O)Nc2cccc(Br)c2)cc1` (stereo not given) the activation was inactive: -2.75%. For `Cc1c(C(c2ccc3c(c2)OCO3)c2c(C)n(C)n(-c3ccccc3)c2=O)c(=O)n(-c2ccccc2)n1C.O=[N+]([O-])c1cc([N+](=O)[O-])c(O)c([N+](=O)[O-])c1`, the activation was inactive: -5.23%. In the case of `Cc1cc(-c2cccc3ccccc23)c(C)cn1.O=[N+]([O-])c1cc([N+](=O)[O-])c(O)c([N+](=O)[O-])c1`, the activation is reported as inactive: 2.68%. For `O=[N+]([O-])c1ccc(OP2(=O)COCCO2)cc1` (stereo not given), the activation was inactive: -0.48%. For `CCOP(C)(=S)SCC(=O)NC(C)(CC)C(=O)O` (stereo not given), the activation was inactive: -3.34%. For `CP(=O)(Nc1ccc(SC(F)(F)F)cc1)Oc1ccc(F)cc1` (stereo not given), the activation was inactive: -3.52%. For `Cc1ccccc1NP(C)(=O)Nc1ccccc1C`, the activation was inactive: -0.948%. With `CCN(CCCl)Cc1ccccc1C` the activation was inactive: -1.85%. For `CP(=O)(Nc1ccc2c(c1)OCCO2)Oc1ccccc1` (stereo not given), the activation was inactive: -4.41%. With `CC(C)c1ccc(OP(C)(=O)Nc2ccc(SC(F)(F)F)cc2)cc1` (stereo not given) the activation was inactive: 5.23%. For `CP(=O)(Nc1ccccc1F)Oc1ccccc1` (stereo not given), the activation was inactive: 3.35%. For `CCOP(=O)(CC)Oc1ccc([N+](=O)[O-])cc1` (stereo not given), the activation was inactive: -4.44%. In the case of `O=C(OCCN1CCN(CCOCc2ccccc2)CC1)C(O)(c1ccccc1)c1ccccc1`, the activation is reported as inactive: -1.84%. In the case of `COc1ccc(OP(C)(=O)Nc2ccc(SC(F)(F)F)cc2)cc1` (stereo not given), the activation is reported as inactive: 3.63%. In the case of `CCOC(=O)c1ccc(NP(C)(=O)Oc2ccc(F)cc2)cc1` (stereo not given), the activation is reported as inactive: -1.75%. For `Cc1cccc([N+](=O)[O-])c1[N+](=O)[O-]`, the activation was inactive: -0.613%. In the case of `CCCCCOc1ccc(NP(C)(=O)Oc2ccc(Cl)cc2Cl)cc1` (stereo not given), the activation is reported as inactive: -3.12%. With `CP(=O)(Nc1ccccc1)Oc1ccc(F)cc1` (stereo not given) the activation was inactive: -3.37%. In the case of `CCN(CC)CCCOC(=O)C(O)(c1ccccc1)C1CCCCC1` (stereo not given), the activation is reported as inactive: -1.27%. For `Cc1c([N+](=O)[O-])cc([N+](=O)[O-])c(Br)c1[N+](=O)[O-]`, the activation was inactive: -2.57%. For `O=[N+]([O-])c1cccc([N+](=O)[O-])c1`, the activation was inactive: 4.31% and inactive: -4.23%. For `O=[N+]([O-])OCC(CO[N+](=O)[O-])(CO[N+](=O)[O-])CO[N+](=O)[O-]`, the activation was inactive: -3.49%. With `CC1=NCCc2c1[nH]c1ccccc21.O=[N+]([O-])c1cc([N+](=O)[O-])c(O)c([N+](=O)[O-])c1` the activation was inactive: -1.94%. In the case of `Cc1cc(C)cc(OP(C)(=O)Nc2ccc(C)cc2C)c1` (stereo not given), the activation is reported as inactive: -2.69%. For `CCOC(=O)c1ccc(NP(C)(=O)Oc2cc(C)cc(C)c2)cc1` (stereo not given), the activation was inactive: -3.97%. For `COc1ccccc1OP(C)(=O)Nc1cccc(Br)c1` (stereo not given), the activation was inactive: -3.84%. For `Cc1cc(C)cc(OP(C)(=O)Nc2ccccn2)c1` (stereo not given), the activation was inactive: 2.33%. With `CP(=O)(Nc1cccc(Br)c1)Oc1ccccc1` (stereo not given) the activation was inactive: -2.63%. With `Cc1ccc(C)c(NP(C)(=O)Oc2ccccc2)c1` (stereo not given) the activation was inactive: 2.75%. For `CC(C)N(CCCl)C(C)C`, the activation was inactive: -4.6%. With `CN(Cc1cccnc1)C(=O)COc1ccc(Cl)c(Cl)c1.O=[N+]([O-])c1cc([N+](=O)[O-])c(O)c([N+](=O)[O-])c1` the activation was inactive: 1.75%. For `O=[N+]([O-])c1cc([N+](=O)[O-])c(-n2nnc3ccccc32)c([N+](=O)[O-])c1`, the activation was inactive: -2.04%. For `Cc1nc2ccc3ccccc3c2s1.O=[N+]([O-])c1cc([N+](=O)[O-])c(O)c([N+](=O)[O-])c1`, the activation was inactive: -0.123%. With `O=[N+]([O-])c1cc([N+](=O)[O-])c(-c2cnn(-c3ccccc3)c2)c([N+](=O)[O-])c1` the activation was inactive: -6.27%. For `CC1=C2N=C(C=C3N=C(C(C)=C4[N-][C@@](C)([C@@H]5N=C1[C@](C)(CCC(=O)NC[C@@H](C)OP(=O)([O-])O[C@H]1[C@@H](O)[C@@H](n6cnc7cc(C)c(C)cc76)O[C@@H]1CO)[C@H]5CC(N)=O)[C@@](C)(CC(N)=O)[C@@H]4CCC(N)=O)[C@@](C)(CC(N)=O)[C@@H]3CCC(N)=O)C(C)(C)[C@@H]2CCC(N)=O.[C-]#N.[Co+3]`, the activation was inactive: -4.74%. In the case of `O=[N+]([O-])c1cc([N+](=O)[O-])c(Nc2nnnn2CCO)c([N+](=O)[O-])c1`, the activation is reported as inactive: -2.85%. In the case of `CCCOc1ccc(NP(C)(=O)Oc2ccc(Cl)cc2)cc1` (stereo not given), the activation is reported as inactive: 8.68%. In the case of `CP(=O)(Nc1ccc(SC(F)(F)F)cc1)Oc1ccccc1` (stereo not given), the activation is reported as inactive: -2.49%. In the case of `COc1ccccc1OP(C)(=O)Nc1c(C)cccc1C` (stereo not given), the activation is reported as inactive: -4.63%. With `CN1CCCCC1COC(=O)C1(O)c2ccccc2CCc2ccccc21` (stereo not given) the activation was inactive: -3.53%. In the case of `COc1ccccc1OP(C)(=O)Nc1ccccc1` (stereo not given), the activation is reported as inactive: -6%. For `CP(=O)(Nc1ccccc1Br)Oc1ccccc1` (stereo not given), the activation was inactive: -4.28%. In the case of `CP(=S)(Nn1cnnc1)Oc1ccccc1` (stereo not given), the activation is reported as inactive: -2.43%. For `Cc1cc(C)cc(OP(C)(=O)Nc2ccc(SC(F)(F)F)cc2)c1` (stereo not given), the activation was inactive: -0.774%. With `CP(=O)(NC(=O)Nc1ccccc1)Oc1ccccc1` (stereo not given) the activation was inactive: -2.18%. With `CCc1ccc(OP(C)(=O)N2CCN(c3ccc([N+](=O)[O-])cc3)CC2)cc1` (stereo not given) the activation was inactive: -0.402%. With `CP(=O)(Oc1ccccc1)OC(c1ccccc1)C(F)(F)F` (stereo not given) the activation was inactive: -2.7%. With `Cc1cccc(C)c1OP(C)(=O)Nc1ccc(SC(F)(F)F)cc1` (stereo not given) the activation was inactive: -5.08%. With `CP(=O)(Nc1ccc(SC(F)(F)F)cc1)Oc1ccc(Cl)cc1` (stereo not given) the activation was inactive: -5.92%. With `CP(=O)(Nc1ccccn1)Oc1ccc(Cl)cc1` (stereo not given) the activation was inactive: -3.87%. With `CCOP(C)(=S)SCC(=O)NC(C)C(=O)O` (stereo not given) the activation was inactive: -2.78%. For `CN(C)CCS`, the activation was inactive: -3.36%. With `CCOC(=O)c1ccc(NP(C)(=O)Oc2ccc(OC)cc2)cc1` (stereo not given) the activation was inactive: 1.45%. For `O=[N+]([O-])c1cc([N+](=O)[O-])c(O)c([N+](=O)[O-])c1.c1ccc(Oc2ccncc2)cc1`, the activation was inactive: -2.18%. In the case of `CCN(CC)CCCOC(=O)C(O)(c1ccccc1)c1ccccc1`, the activation is reported as inactive: -4.95%. For `O=[N+]([O-])[O-].[NH4+]`, the activation was inactive: -3.99%. For `Cc1cccc(C)c1OP(C)(N)=O` (stereo not given), the activation was inactive: 0.213%. In the case of `O=C(O)C(O)(c1ccccc1)c1ccccc1`, the activation is reported as inactive: -3%. With `CC(C)(C)c1ccc(OP(C)(=O)Nc2ccc(SC(F)(F)F)cc2)cc1` (stereo not given) the activation was inactive: -7.28%. In the case of `O=[N+]([O-])c1ccc2c(c1)C=Nc1ccccc1O2`, the activation is reported as inactive: -2.23%. For `O=[N+]([O-])c1cc([N+](=O)[O-])c(Nc2cccnc2)c([N+](=O)[O-])c1`, the activation was inactive: -5.93%. In the case of `O=C(O)C1(O)c2ccccc2-c2ccccc21`, the activation is reported as inactive: 1.15%. For `COc1ccc(OP(C)(=O)Nc2cccc(F)c2)cc1` (stereo not given), the activation was inactive: -4.35%. With `COc1ccccc1OP(C)(=O)Nc1cc(Cl)ccc1C` (stereo not given) the activation was inactive: -3.48%. For `Cc1cc(C)cc(OP(C)(N)=O)c1` (stereo not given), the activation was inactive: -2.85%. In the case of `CCOC(=O)c1ccc(NP(C)(=O)Oc2ccccc2)cc1` (stereo not given), the activation is reported as inactive: -1.72%. In the case of `Cc1ccc(NP(C)(=O)Oc2ccccc2)c(C)c1` (stereo not given), the activation is reported as inactive: 0.719%. In the case of `COc1ccccc1OP(C)(=O)Nc1ccc(C)cc1` (stereo not given), the activation is reported as inactive: 0.736%.
